Earlier results in paper PMC7796559, “Connecting the conformational behavior of cyclic octadepsipeptides with their ionophoric property and membrane permeability” (Organic & biomolecular chemistry, 2020).

System: Caco-2
Design: method as in PMID 26067057, PMID 32121188
Settings: cited from earlier work

Substance: beauvericin [compound 6]
- Permeability in Caco-2 permeability assay: 580 ×10⁻⁶ cm/s
